In patent US20090036364A1:

Target: GIP receptor
Assay: cell-based or functional assay

Substance | Cyclase
0601GIP3794, (D-Ala2)GIP(1-30)-… amide form (peptide) | 38
0601GIP4252, [dAla2]GIP-(1-30)-[Octylglycine 34] Exendin-4 (31-39) (peptide) | 154
0601GIP4178, octylglycine-GIP(1-30)-Exendin-4-(31-39) (peptide) | 96
